Cyclic peptide permeability, from CycPeptMPDB

Collected by the curators of CycPeptMPDB (Li et al. 2023) from Kelly et al. 2021, doi:10.1021/jacs.0c06115.

PAMPA is the parallel artificial membrane permeability assay, which has no cells and reads passive diffusion. Permeability is in 10^-6 cm/s, converted from the database's log10 values; higher is more permeable.

structure (SMILES),PAMPA (10^-6 cm/s)
CC(=O)N1CCC[C@@H]1C(=O)N(C)[C@@H](CC(C)C)C(=O)N[C@@H]1C(=O)N(C)[C@@H](CC(C)C)C(=O)N[C@H](CC(C)C)C(=O)N(C)[C@H](CC(C)C)C(=O)N(C)[C@@H](C)C(=O)N[C@@H](CC(C)C)C(=O)N2CCC[C@@H]2C(=O)O[C@@H]1C,3.6
CC(=O)N1CCC[C@H]1C(=O)N(C)[C@H](CC(C)C)C(=O)N[C@@H]1C(=O)N[C@@H](CC(C)C)C(=O)N(C)[C@@H](CC(C)C)C(=O)N[C@@H](CC(C)C)C(=O)N(C)[C@@H](C)C(=O)N[C@H](CC(C)C)C(=O)N2CCC[C@H]2C(=O)O[C@@H]1C,1.2
CC(=O)N1CCC[C@@H]1C(=O)N(C)[C@@H](CC(C)C)C(=O)N[C@@H]1C(=O)N(C)[C@H](CC(C)C)C(=O)N(C)[C@@H](CC(C)C)C(=O)N(C)[C@H](CC(C)C)C(=O)N(C)[C@H](C)C(=O)N[C@@H](CC(C)C)C(=O)N2CCC[C@@H]2C(=O)O[C@@H]1C,8.9
CC(=O)N1CCC[C@H]1C(=O)N(C)[C@H](CC(C)C)C(=O)N[C@@H]1C(=O)N[C@@H](CC(C)C)C(=O)N[C@H](CC(C)C)C(=O)N[C@H](CC(C)C)C(=O)N(C)[C@H](C)C(=O)N[C@H](CC(C)C)C(=O)N2CCC[C@@H]2C(=O)O[C@@H]1C,0.19
CC(=O)N1CCC[C@@H]1C(=O)N(C)[C@H](CC(C)C)C(=O)N[C@@H]1C(=O)N(C)[C@H](CC(C)C)C(=O)N[C@@H](CC(C)C)C(=O)N[C@@H](CC(C)C)C(=O)N[C@@H](C)C(=O)N[C@@H](CC(C)C)C(=O)N2CCC[C@H]2C(=O)O[C@@H]1C,2
CC(=O)N1CCC[C@@H]1C(=O)N(C)[C@@H](CC(C)C)C(=O)N[C@@H]1C(=O)N[C@H](CC(C)C)C(=O)N(C)[C@@H](CC(C)C)C(=O)N(C)[C@@H](CC(C)C)C(=O)N(C)[C@H](C)C(=O)N[C@H](CC(C)C)C(=O)N2CCC[C@H]2C(=O)O[C@@H]1C,3
CC(=O)N1CCC[C@@H]1C(=O)N(C)[C@@H](CC(C)C)C(=O)N[C@@H]1C(=O)N[C@H](CC(C)C)C(=O)N(C)[C@H](CC(C)C)C(=O)N(C)[C@@H](CC(C)C)C(=O)N(C)[C@H](C)C(=O)N[C@@H](CC(C)C)C(=O)N2CCC[C@H]2C(=O)O[C@@H]1C,5
CC(=O)N1CCC[C@@H]1C(=O)N(C)[C@@H](CC(C)C)C(=O)N[C@@H]1C(=O)N[C@@H](CC(C)C)C(=O)N(C)[C@H](CC(C)C)C(=O)N(C)[C@@H](CC(C)C)C(=O)N[C@@H](C)C(=O)N[C@@H](CC(C)C)C(=O)N2CCC[C@@H]2C(=O)O[C@@H]1C,2.6
CC(=O)N1CCC[C@@H]1C(=O)N(C)[C@H](CC(C)C)C(=O)N[C@@H]1C(=O)N[C@@H](CC(C)C)C(=O)N(C)[C@H](CC(C)C)C(=O)N(C)[C@@H](CC(C)C)C(=O)N(C)[C@H](C)C(=O)N[C@@H](CC(C)C)C(=O)N2CCC[C@@H]2C(=O)O[C@@H]1C,1.7
CC(=O)N1CCC[C@@H]1C(=O)N(C)[C@H](CC(C)C)C(=O)N[C@@H]1C(=O)N[C@H](CC(C)C)C(=O)N(C)[C@@H](CC(C)C)C(=O)N[C@@H](CC(C)C)C(=O)N(C)[C@@H](C)C(=O)N[C@@H](CC(C)C)C(=O)N2CCC[C@@H]2C(=O)O[C@@H]1C,3.7
CC(=O)N1CCC[C@@H]1C(=O)N(C)[C@H](CC(C)C)C(=O)N[C@@H]1C(=O)N(C)[C@H](CC(C)C)C(=O)N[C@@H](CC(C)C)C(=O)N(C)[C@@H](CC(C)C)C(=O)N(C)[C@@H](C)C(=O)N[C@H](CC(C)C)C(=O)N2CCC[C@@H]2C(=O)O[C@@H]1C,0.98
CC(=O)N1CCC[C@@H]1C(=O)N(C)[C@H](CC(C)C)C(=O)N[C@@H]1C(=O)N(C)[C@@H](CC(C)C)C(=O)N(C)[C@H](CC(C)C)C(=O)N[C@H](CC(C)C)C(=O)N(C)[C@@H](C)C(=O)N[C@H](CC(C)C)C(=O)N2CCC[C@@H]2C(=O)O[C@@H]1C,0.87
CC(=O)N1CCC[C@@H]1C(=O)N(C)[C@H](CC(C)C)C(=O)N[C@@H]1C(=O)N(C)[C@@H](CC(C)C)C(=O)N(C)[C@@H](CC(C)C)C(=O)N[C@@H](CC(C)C)C(=O)N[C@@H](C)C(=O)N[C@H](CC(C)C)C(=O)N2CCC[C@H]2C(=O)O[C@@H]1C,0.079
CC(=O)N1CCC[C@@H]1C(=O)N(C)[C@@H](CC(C)C)C(=O)N[C@@H]1C(=O)N(C)[C@H](CC(C)C)C(=O)N[C@@H](CC(C)C)C(=O)N[C@H](CC(C)C)C(=O)N[C@@H](C)C(=O)N[C@H](CC(C)C)C(=O)N2CCC[C@@H]2C(=O)O[C@@H]1C,0.49
CC(=O)N[C@@H]1C(=O)N2CCC[C@H]2C(=O)N(C)[C@H](CC(C)C)C(=O)N(C)[C@H](CC(C)C)C(=O)N(C)[C@@H](CC(C)C)C(=O)N(C)[C@H](CC(C)C)C(=O)N(C)[C@H](C)C(=O)N[C@@H](CC(C)C)C(=O)N2CCC[C@@H]2C(=O)O[C@@H]1C,5.1
CC(=O)N1CCC[C@H]1C(=O)N(C)[C@@H](CC(C)C)C(=O)N[C@@H]1C(=O)N(C)[C@H](CC(C)C)C(=O)N(C)[C@H](CC(C)C)C(=O)N[C@H](CC(C)C)C(=O)N(C)[C@@H](C)C(=O)N[C@H](CC(C)C)C(=O)N2CCC[C@H]2C(=O)O[C@@H]1C,9.8
CC(=O)N[C@@H]1C(=O)N2CCC[C@H]2C(=O)N(C)[C@H](CC(C)C)C(=O)N(C)[C@@H](CC(C)C)C(=O)N(C)[C@H](CC(C)C)C(=O)N(C)[C@H](CC(C)C)C(=O)N(C)[C@H](C)C(=O)N[C@@H](CC(C)C)C(=O)N2CCC[C@@H]2C(=O)O[C@@H]1C,10
CC(=O)N1CCC[C@H]1C(=O)N(C)[C@@H](CC(C)C)C(=O)N[C@@H]1C(=O)N[C@@H](CC(C)C)C(=O)N[C@H](CC(C)C)C(=O)N[C@H](CC(C)C)C(=O)N[C@@H](C)C(=O)N[C@H](CC(C)C)C(=O)N2CCC[C@@H]2C(=O)O[C@@H]1C,0.051
CC(=O)N1CCC[C@@H]1C(=O)N(C)[C@H](CC(C)C)C(=O)N[C@@H]1C(=O)N[C@@H](CC(C)C)C(=O)N(C)[C@@H](CC(C)C)C(=O)N[C@@H](CC(C)C)C(=O)N[C@@H](C)C(=O)N[C@H](CC(C)C)C(=O)N2CCC[C@H]2C(=O)O[C@@H]1C,0.21
CC(=O)N1CCC[C@@H]1C(=O)N(C)[C@@H](CC(C)C)C(=O)N[C@@H]1C(=O)N(C)[C@H](CC(C)C)C(=O)N(C)[C@H](CC(C)C)C(=O)N[C@@H](CC(C)C)C(=O)N(C)[C@@H](C)C(=O)N[C@H](CC(C)C)C(=O)N2CCC[C@@H]2C(=O)O[C@@H]1C,7.4
CC(=O)N1CCC[C@H]1C(=O)N[C@@H]1C(=O)N[C@H](CC(C)C)C(=O)N[C@@H](CC(C)C)C(=O)N[C@@H](CC(C)C)C(=O)N(C)[C@@H](CC(C)C)C(=O)N[C@@H](C)C(=O)N[C@@H](CC(C)C)C(=O)N2CCC[C@@H]2C(=O)O[C@@H]1C,1.5
CC(=O)N1CCC[C@H]1C(=O)N[C@@H]1C(=O)N[C@H](CC(C)C)C(=O)N[C@H](CC(C)C)C(=O)N[C@H](CC(C)C)C(=O)N[C@@H](CC(C)C)C(=O)N[C@@H](C)C(=O)N[C@@H](CC(C)C)C(=O)N2CCC[C@@H]2C(=O)O[C@@H]1C,0.22
CC(=O)N1CCC[C@H]1C(=O)N(C)[C@@H](CC(C)C)C(=O)N[C@@H]1C(=O)N(C)[C@H](CC(C)C)C(=O)N[C@@H](CC(C)C)C(=O)N(C)[C@H](CC(C)C)C(=O)N(C)[C@@H](C)C(=O)N[C@H](CC(C)C)C(=O)N2CCC[C@@H]2C(=O)O[C@@H]1C,0.91
CC(=O)N1CCC[C@H]1C(=O)N(C)[C@@H](CC(C)C)C(=O)N[C@@H]1C(=O)N(C)[C@H](CC(C)C)C(=O)N[C@H](CC(C)C)C(=O)N(C)[C@H](CC(C)C)C(=O)N(C)[C@H](C)C(=O)N[C@H](CC(C)C)C(=O)N2CCC[C@@H]2C(=O)O[C@@H]1C,0.91

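The data file gives no further conditions (lipid, pH, time, direction or concentration), and values from different papers need not be comparable. Other peptides of the study may be missing here. Peptides that the database sets to -10, its floor, are left out.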